Earlier results in patent US5578725A, “Delta opioid receptor antagonists” (priority 1995, dated 1996).

The chains behind the UniProt entries cited, without tags or fusion partners. Where a name states a change or a piece, a line headed by the entry shows the natural chain unless it says otherwise. Residues count along the entry.
UniProt A0A286XTF2, 1-366: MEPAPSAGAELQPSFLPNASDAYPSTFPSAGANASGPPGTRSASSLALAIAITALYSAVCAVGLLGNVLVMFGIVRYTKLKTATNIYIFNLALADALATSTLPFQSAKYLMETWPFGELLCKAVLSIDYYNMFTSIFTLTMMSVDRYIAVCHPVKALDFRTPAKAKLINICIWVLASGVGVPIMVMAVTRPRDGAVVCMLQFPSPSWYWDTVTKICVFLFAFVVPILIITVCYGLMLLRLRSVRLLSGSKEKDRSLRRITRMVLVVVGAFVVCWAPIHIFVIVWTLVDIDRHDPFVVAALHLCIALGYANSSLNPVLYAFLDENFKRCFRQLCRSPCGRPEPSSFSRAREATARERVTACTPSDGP

Target: T1, δ1 (Cavia porcellus, UniProt A0A286XTF2)
T1 construct: Guinea Pig Brain Membranes; from tissue; host or cells: guinea pig brain membranes
Conditions: read-out: Ki δ1; data from Portoghese et al.; cited from earlier work

In the case of `Oc1ccc2c3c1O[C@H]1c4[nH]c5ccccc5c4C[C@@]4(O)[C@@H](C2)N(CC2CC2)CC[C@]314` [Compound 1, naltrindole], the Ki is listed as 0.03 nM.
